“And” between values parts separate entries of the source, which are not always exact repeats. Equal entries are not always repeated. The entries are a selection whose mix differs from that of the whole data set. Results filed as inconclusive are left out. The source made the active and inactive calls. The call rests on the fitted dose curve; in most records, active means well fitted inhibition curve with a large enough effect; inconclusive means small, poorly fitted or top-dose-only effect, or another doubt; inactive means no such curve, though single readings can be large or run the other way.
Each compound was assayed against Lysosomal alpha-glucosidase (Homo sapiens) (UniProt P10253) (assay: qHTS Assay for Inhibitors and Activators of Human alpha-Glucosidase Cleavage of Glycogen). Conditions: recombinant GAA, glycogen substrate, Amplex Red glucose oxidase fluorescence; at 76.4 µM (top of the series) unless noted.
Description: NIH Chemical Genomics Center [NCGC] NIH Molecular Libraries Probe Production Centers Network [MLPCN] MLPCN Grant: R03 MH084841-01 Assay Submitter (PI): Wei Zheng NCGC Assay Overview: Alpha-glucosidase is responsible for the hydrolysis of terminal, non-reducing 1,4-linked alpha-D-glucose residues, which releases alpha-D-glucose. It is a lysosomal hydrolase that is required for the degradation of a small percentage (1-3%) of cellular glycogen in humans. Deficiency of this enzyme results in glycogen-storage disease type II (GSDII), also referred to as Pompe disease, an autosomal recessive disorder. Structurally normal glycogen is accumulated in the lysosomes and cytoplasm in affected patients, primarily in muscle tissues. Excessive glycogen storage within lysosomes may interrupt normal functioning of other organelles and leads to cellular injury. In turn, this leads to enlargement and dysfunction of the entire organ involved (eg: cardiomyopathy and muscle weakness). It has been reported that the improper folding and trafficking of alpha-glucosidase resulting from genetic mutations may account for a significant number of Pompe patients. […] We optimized this alpha-glucosidase assay in 1536-well plate format for identification of novel small molecule inhibitors or activators with structures other than the sugar analogs in order to develop new pharmacological chaperones. Previous assays of alpha-Glucosidase have utilized a non-natural fluorescent substrate to probe enzyme activity. The present assay measures enzyme activity on glycogen using a coupled-assay system to glucose oxidase.
NCGC Assay Protocol Summary: This is an enzyme assay using glycogen from bovine liver (Sigma catalog #: G0885) as the substrate and recombinant human alpha-glucosidase as the enzyme preparation. Upon hydrolysis of the substrate, the glucose product can be detected using the Amplex Red Glucose Oxidase Assay Kit (Invitrogen catalog #: A22189). The product of this reaction can be read with a fluorescence plate reader with an excitation at 573 nm and an emission at 610 nm. Data were normalized to the controls for basal activity (without enzyme) and 100% activity (with enzyme). The AC50 values were determined from concentration-response data modeled with the standard Hill equation. Assay buffer for enzyme reaction: 50 mM citric acid (titrated with potassium phosphate to pH 5.0), 0.01% Tween-20 (pH 5.0 is an optimal condition for this enzyme assay) Assay buffer for Amplex Red reaction: Tris-HCl, pH 7.5 1536-well assay protocol for the alpha-glucosidase assay: (1) Add 2 ul/well alpha-glucosidase enzyme solution (4 nM final) (2) Add 23 nL compounds in DMSO solution. The final titration was 0.7 nM to 77 uM. (3) Add 1 ul of glycogen substrate solution (30 ug) (4) Incubate at 37 C for 40 min (5) Add 2 ul tris-HCl buffer with Amplex Red reagents (6) Incubate 45 min at room temperature. (7) Detect the assay plate in a ViewLux plate reader (PerkinElmer) with Ex=573 nm and Em=610nm. Keywords: Alpha-glucosidase, Pompe Disease, pharmacological chaperone, chaperone therapy, high throughput screening, alpha-glucosidase inhibitor, MLSMR, MLSCN, NIH Roadmap, qHTS and NCGC
In the case of O=C(OC1CN2CCC1CC2)c1cccc([N+](=O)[O-])c1 (stereo unspecified), the activity change, negative = inhibition is reported as inactive: -12.1%. With CCOC(=O)c1ccc(NC(=O)C(C)(CCl)SC)cc1 (stereo unspecified) the activity change, negative = inhibition was inactive: -5.53%. For COc1ccc2nc(NP(=O)(c3ccccc3)c3ccccc3)sc2c1, the activity change, negative = inhibition was inactive: 2.77%. COc1cc(I)ccc1[As](=O)(O)O was tested, and the activity change, negative = inhibition was inactive: 2.19%. Cc1c2c(nc3ccccc13)SC(C(Cl)Cl)C2 (stereo unspecified) was tested, and the activity change, negative = inhibition was inactive: -3.68%. In the case of O=C(OC1CN2CCC1CC2)C12CC3CC(CC(C3)C1)C2 (stereo unspecified), the activity change, negative = inhibition is reported as inactive: -3.55%. Cc1cc(=O)[nH]c(N[N+](=O)[O-])n1 was tested, and the activity change, negative = inhibition was inactive: -10.3%. In the case of COc1ccc(N/C(=N/P(=O)(N2CCOCC2)N2CCOCC2)N2CCOCC2)cc1, the activity change, negative = inhibition is reported as inactive: -4.64%. For Cc1ccc(OP(=O)(Nc2ccc([N+](=O)[O-])cn2)Oc2ccc(C)cc2)cc1, the activity change, negative = inhibition was inactive: 1.84%. Cc1ccc2nc3c(c(C)c2c1)CC(C(Cl)Cl)S3 (stereo unspecified) was tested, and the activity change, negative = inhibition was inactive: -2.62%. For C[As](=O)(O)c1cccc(C(=O)O)c1, the activity change, negative = inhibition was inactive: 5.96%. O=[As](O)(c1ccc(O)cc1)c1ccccc1O was tested, and the activity change, negative = inhibition was inactive: 0.325%. In the case of CCN(CC)C(=S)SC(NC=O)C(Cl)(Cl)Cl (stereo unspecified), the activity change, negative = inhibition is reported as inactive: 1.85%. For CC(C)NC(=O)NP(=O)(Oc1ccccc1)Oc1ccccc1, the activity change, negative = inhibition was inactive: 9.48%. For O=[N+]([O-])c1cc([N+](=O)[O-])c(-c2ccn[nH]2)s1, the activity change, negative = inhibition was inactive: 7.13%. For ClCCSc1nnc(-c2cccnc2)o1, the activity change, negative = inhibition was inactive: -10.4%. CC(C)c1ccc(OP(=O)(Nc2ccccn2)Oc2ccccc2F)cc1 (stereo unspecified) was tested, and the activity change, negative = inhibition was inactive: -0.242%. In the case of CCOP(=O)(Nc1ccccc1)OCC, the activity change, negative = inhibition is reported as inactive: 3.43% and inactive: 4.06%. Cc1cc(SC(NC(=O)c2ccc(F)cc2)C(Cl)(Cl)Cl)ncn1 (stereo unspecified) was tested, and the activity change, negative = inhibition was inactive: -12.1%. For Cc1ccc(NP(=O)(Oc2ccccc2F)Oc2ccccc2F)nc1, the activity change, negative = inhibition was inactive: 5.08%. With O=P(Nc1nc2ccc(Cl)cc2s1)(c1ccccc1)c1ccccc1 the activity change, negative = inhibition was inactive: 5.6%. For O=C(O)c1ccccc1[As](=O)(O)O, the activity change, negative = inhibition was inactive: 1.77%. CC(=O)Nc1ccc([As](=O)(O)O)cc1 was tested, and the activity change, negative = inhibition was inactive: -2.56%. For Nc1cccc2ccc([As](=O)(O)O)cc12, the activity change, negative = inhibition was inactive: -2.62%. With CCN(N=Nc1nonc1N)c1nonc1N the activity change, negative = inhibition was inactive: -1.22%. O=[N+]([O-])c1cc([N+](=O)[O-])c(CCN2CCOCC2)c([N+](=O)[O-])c1 was tested, and the activity change, negative = inhibition was inactive: -10.4%. For Clc1ccc(Cl)c(NC2=NCC(CBr)S2)c1 (stereo unspecified), the activity change, negative = inhibition was inactive: -11.8%. CN1CCCC(OC(=O)C(c2ccccc2)c2ccccc2)C1 (stereo unspecified) was tested, and the activity change, negative = inhibition was inactive: 5.37%. COc1ccccc1OP(=O)(Nc1ccc(C)cn1)Oc1ccccc1OC was tested, and the activity change, negative = inhibition was inactive: -3.63%. With Cc1ccc(OP(=O)(Nc2nccs2)Oc2ccc(C)cc2)cc1 the activity change, negative = inhibition was inactive: -4.99%. In the case of Cc1ccc(N/C(=N/P(=O)(N2CCOCC2)N2CCOCC2)N2CCOCC2)cc1, the activity change, negative = inhibition is reported as inactive: 6.61%. With NC(=O)c1cc([N+](=O)[O-])cc([N+](=O)[O-])c1N the activity change, negative = inhibition was inactive: 4.7%. In the case of Oc1ccccc1CNc1ccccn1, the activity change, negative = inhibition is reported as inactive: 0.252%. For Cc1c2non([O-])c-2c(C)[n+](=O)[n+]1[O-], the activity change, negative = inhibition was inactive: 17.9%. For CC(C)CC(=O)NC(Sc1ccc(Cl)cc1)C(Cl)(Cl)Cl (stereo unspecified), the activity change, negative = inhibition was inactive: -5.26%. In the case of Nc1cc(N)c2nonc2c1[N+](=O)[O-], the activity change, negative = inhibition is reported as inactive: -3.53%. Cc1ccc(NP(=O)(Oc2ccccc2)Oc2ccccc2)nc1 was tested, and the activity change, negative = inhibition was inactive: 7.97%. For CCc1nc2c(n1)c1c(non1O)c1c2no[n+]1[O-], the activity change, negative = inhibition was inactive: 6.56%. In the case of O=[N+]([O-])c1cc([N+](=O)[O-])c(CCNc2ccccc2)c([N+](=O)[O-])c1, the activity change, negative = inhibition is reported as inactive: -10%. For O=[N+]([O-])c1cccc2n[nH]nc12, the activity change, negative = inhibition was inactive: 1.04%. For CC(=O)N1C2C3N(C(C)=O)C1C1N(C(C)=O)C(C(N1C(C)=O)N3C(C)=O)N2C(C)=O, the activity change, negative = inhibition was inactive: 3.41%. In the case of COc1ccc(C2=NCC(CBr)S2)cc1 (stereo unspecified), the activity change, negative = inhibition is reported as inactive: 8.25%. With CC1CCN(C(=O)Oc2c(Cl)cc(Cl)c3cccnc23)CC1 the activity change, negative = inhibition was inactive: 3.2%. CC(C)=N/N=C(\N)N[N+](=O)[O-] was tested, and the activity change, negative = inhibition was inactive: 20.2%. CN(C)C(=O)OCCc1n(C)cc[n+]1C was tested, and the activity change, negative = inhibition was inactive: -11.2%. With CCN(/C(=N/P(=O)(N1CCOCC1)N1CCOCC1)N1CCOCC1)c1ccc(OC)cc1 the activity change, negative = inhibition was inactive: -1.94%. Nc1ccc([As](=O)(O)c2ccc(N)cc2)cc1 was tested, and the activity change, negative = inhibition was inactive: 6.69%. For C[N+]1=C2C=CC=CC=C2SC12C([N+](=O)[O-])=CC([N+](=O)[O-])=C[C-]2[N+](=O)[O-] (stereo unspecified), the activity change, negative = inhibition was inactive: -7.88%. For O=C(O)CNc1ccc([As](=O)(O)O)cc1, the activity change, negative = inhibition was inactive: 2.44%. For O=[N+]([O-])c1cccc(NC2=NCC(CBr)S2)c1 (stereo unspecified), the activity change, negative = inhibition was inactive: 5.42%. For O=[N+]([O-])c1ncn(CCn2ncnc2[N+](=O)[O-])n1, the activity change, negative = inhibition was inactive: 3.23%.
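Further: 0% = full enzyme reaction and -100% = no-enzyme basal signal; the screen sought inhibitors and activators.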
